# How the values were obtained:
# [1] = molecular target: ΔSMB-ATX (autotaxin, ENPP2) (Homo sapiens, UniProt Q13822)
# [2] = molecular target: Autotaxin (ATX, ENPP2) (Homo sapiens, UniProt Q13822); experiment: biochemical
smiles,measurement,setting,value
CCCCCCCC/C=C\CCCCCCCC(=O)OC[C@@H](O)COP(=O)(O)O [LPA(18:1)],EC50,[1],720 nM
same,EC50,[2],80 nM

# — publication PMC3064516 (Nature structural & molecular biology, 2011)
